Among the data in PubChem BioAssay AID1117361 (Southern Research Institute, 2015) are IC50 values, retold here.

By UniProt entry, the sequences of proteins in these tests, tags left out. Where a name states a change or a piece, a line headed by the entry shows the natural chain unless it says otherwise.
UniProt P04608: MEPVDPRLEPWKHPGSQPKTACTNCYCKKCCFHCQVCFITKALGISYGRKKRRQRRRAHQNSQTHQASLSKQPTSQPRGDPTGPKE

Molecules are shown by their SMILES.

The assay deals with Protein Tat (Human immunodeficiency virus type 1 group M subtype B (isolate HXB2)) (UniProt P04608). Put plainly: HIV-1 Tat–TAR interaction blockers – biochemical, fluorescence polarization, FAM-labeled TAR RNA, counter-screen for Vif-APOBEC3G degradation inhibitor project, dose response (AID 1117361). The note with it: Tat-TAR RNA binding.

Consider `Oc1ccc(/C=N/NC(=S)Nc2cccnc2)c(O)c1O`, for which the IC50 is 12.9 µM.
